From patent US12233083B2, “Methods for the use of 5′-adenosine diphosphate ribose (ADPR)” (Invirsa, Inc., priority 2018, dated 2025)
Only a part of the results on these compounds is given; other tests are left out.

Amino acid sequences for entries named in this document (tags omitted).
UniProt P53686, whole entry: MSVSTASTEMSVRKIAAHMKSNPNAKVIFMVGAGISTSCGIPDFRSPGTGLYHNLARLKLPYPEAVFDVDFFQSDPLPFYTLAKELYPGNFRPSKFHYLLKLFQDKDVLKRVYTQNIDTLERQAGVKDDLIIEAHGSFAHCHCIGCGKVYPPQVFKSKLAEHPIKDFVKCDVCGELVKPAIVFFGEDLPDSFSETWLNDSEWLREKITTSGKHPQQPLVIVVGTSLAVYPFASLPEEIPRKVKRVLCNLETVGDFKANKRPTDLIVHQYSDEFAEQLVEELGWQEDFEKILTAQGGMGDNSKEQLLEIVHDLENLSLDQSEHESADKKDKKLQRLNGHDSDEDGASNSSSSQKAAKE
UniProt Q8N6T7, whole entry: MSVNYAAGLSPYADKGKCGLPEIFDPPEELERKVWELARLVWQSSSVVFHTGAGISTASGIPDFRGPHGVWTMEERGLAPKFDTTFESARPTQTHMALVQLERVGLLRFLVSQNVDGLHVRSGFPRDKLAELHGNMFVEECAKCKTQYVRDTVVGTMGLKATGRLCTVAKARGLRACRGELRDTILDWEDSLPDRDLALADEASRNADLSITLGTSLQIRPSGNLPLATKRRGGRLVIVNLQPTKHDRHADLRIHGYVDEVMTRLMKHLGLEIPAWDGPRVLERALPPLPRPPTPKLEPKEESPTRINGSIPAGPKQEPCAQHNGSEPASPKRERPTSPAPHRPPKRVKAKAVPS

Assays:
Hst2 = Hst2 (Saccharomyces cerevisiae, UniProt P53686); conditions: Khan and Lewis, 2005; cited from earlier work
Sirt6 = Sirt6 (Homo sapiens, UniProt Q8N6T7); conditions: Cerep/Eurofins Sirt6 assay, Michishita et al., 2008; cited from earlier work
Vero cells = test: Toxicity grade on Vero cell monolayers at end of plaque assay

Substance | effect on the deacetylation reaction of Hst2 (Hst2) | concentrations at which ADPR inhibits Sirt6 deacetylation activity (Sirt6) | effect on Vero cell monolayer judged under the microscope prior to fixation (Vero cells; 3 mg/ml) | Toxicity Grade on Vero Cells (Vero cells; Sample 10 μg/ml) | Toxicity Grade on Vero Cells (Vero cells; Sample 30 μg/ml) | Toxicity Grade on Vero Cells (Vero cells; Sample 100 μg/ml) | Toxicity Grade on Vero Cells (Vero cells; Sample 300 μg/ml) | Toxicity Grade on Vero Cells (Vero cells; Sample 1 mg/ml) | Toxicity Grade on Vero Cells (Vero cells; Sample 3 mg/ml)
5′-adenosine diphosphate ribose | inhibit | greater than 1 mM | – | – | – | – | – | – | –
Adenosine 5′-diphosphoribose Sodium Salt | – | – | not affected | 0 | 0 | 0 | 0 | 0 | 0
